In patent US20250179059A1 (The Regents of the University of California, priority 2021, published 2025):

What was measured:
[1] = system: human SKM-1 acute myeloid leukemia cells; test: SKM-1 antiproliferation cell-based assay (ATPlite); conditions: read-out: SKM-1 GI50; SKM-1 antiproliferation assay, 4 days, Table C2
Experimental: The cell-based assay indirectly measures cell density (and therefore proliferation and/or survival) by detecting total ATP concentration in a homogeneous format. Briefly, human SKM-1 acute myeloid leukemia cells (Leibniz Institute DSMZ #ACC 547) proliferating in log phase are collected by centrifugation, re-suspended in culture media (RPMI 1640/15% FBS/100 U/mL penicillin/100 μg/mL streptomycin) and diluted to 34722 cells/mL in media after counting. Then 180 μL cells are plated per well into a 96-well tissue-culture treated, clear bottom plate (Coming #3603). A 96-well compound plate (Corning #3357) is then generated by serial dilution of compounds into DMSO over nine concentrations and adding separate negative (DMSO) and positive control (reference compound) wells. Each compound concentration is tested in triplicate. First, 1 μL from each well of the compound plate is added to 99 μL culture media in an intermediate plate and mixed by pipetting. Then 20 μL of the diluted compounds in media are added to the assay plate containing the cells. The assay plate is maintained for 4 days in a standard cell culture incubator. At the end of the incubation period, 100 μL ATPlite Istep (PerkinElmer) is added to the assay plate wells, and the resulting luminescence is detected using an Infinite M1000 or a Spark multimode plate reader (Tecan). Data analysis is performed in Prism (GraphPad Software). […]

[2] = molecular target: human BRD4 bromodomain II (Homo sapiens, UniProt O60885); test: Bromodomain binding assay (AlphaScreen), BRD4 BDII; conditions: read-out: BRD4 BDII IC50, Table C2
Experimental: Bromodomain Binding Assay
The bromodomain binding assay utilizes AlphaScreen technology. Compounds compete with a biotinylated peptide ligand (from histone H4: aa 1-21, K5/K8/K12/K16Ac-biotin) for binding to a hexahistidine (His6)-tagged bromodomain. Peptide binding is detected by fluorescence signal after singlet oxygen energy transfer from peptide-bound AlphaScreen streptavidin-coated donor beads to His6-tagged bromodomain-bound nickel-chelate acceptor beads (PerkinElmer). Briefly, 8 μL 2.5× bromodomain (E. coli expressed, N-terminal His6-tagged human BRD4 bromodomain II [based on Genbank NM_058243, residues 349-460] or N-terminal His6-tagged human BRD4 bromodomain I [residues 44-170]) in reaction buffer (50 mM HEPES [pH 7.5], 100 mM NaCl, 0.05% CHAPS, 0.1% BSA, 1% DMSO) is added to wells of an assay plate (384-well low flange white, flat bottom, polystyrene microplate, Corning #3572; buffer only is added to some wells as a negative control). A compound concentration series (10 concentrations, 3-fold serial dilutions previously prepared in 100% DMSO, or 100% DMSO only negative control) is delivered to the assay plate with an Echo 550 acoustic liquid handler (Labcyte), followed by plate centrifugation and incubation for 30 minutes at room temperature. […] AlphaScreen signal (excitation/emission: 680 nm/520-620 nm) is detected with an EnSpire multimode plate reader (PerkinElmer). […]

## CN(C)[C@H]1CCN(c2cc(-c3cc(F)cc(-c4ccc(-n5ccn(C)c5=O)c(Cl)c4)c3O)ccn2)C1
[1]
  GI50: 0.3 to 30 nM
[2]
  IC50: 1 to 10 nM
